Source: US20060088834A1, “Matrix analysis of gene expression in cells (magec)” (priority 2002, published 2006)

Chains of the proteins cited; added tags and fusions are not shown. Residues count along the entry.
UniProt P41594, 21-1212: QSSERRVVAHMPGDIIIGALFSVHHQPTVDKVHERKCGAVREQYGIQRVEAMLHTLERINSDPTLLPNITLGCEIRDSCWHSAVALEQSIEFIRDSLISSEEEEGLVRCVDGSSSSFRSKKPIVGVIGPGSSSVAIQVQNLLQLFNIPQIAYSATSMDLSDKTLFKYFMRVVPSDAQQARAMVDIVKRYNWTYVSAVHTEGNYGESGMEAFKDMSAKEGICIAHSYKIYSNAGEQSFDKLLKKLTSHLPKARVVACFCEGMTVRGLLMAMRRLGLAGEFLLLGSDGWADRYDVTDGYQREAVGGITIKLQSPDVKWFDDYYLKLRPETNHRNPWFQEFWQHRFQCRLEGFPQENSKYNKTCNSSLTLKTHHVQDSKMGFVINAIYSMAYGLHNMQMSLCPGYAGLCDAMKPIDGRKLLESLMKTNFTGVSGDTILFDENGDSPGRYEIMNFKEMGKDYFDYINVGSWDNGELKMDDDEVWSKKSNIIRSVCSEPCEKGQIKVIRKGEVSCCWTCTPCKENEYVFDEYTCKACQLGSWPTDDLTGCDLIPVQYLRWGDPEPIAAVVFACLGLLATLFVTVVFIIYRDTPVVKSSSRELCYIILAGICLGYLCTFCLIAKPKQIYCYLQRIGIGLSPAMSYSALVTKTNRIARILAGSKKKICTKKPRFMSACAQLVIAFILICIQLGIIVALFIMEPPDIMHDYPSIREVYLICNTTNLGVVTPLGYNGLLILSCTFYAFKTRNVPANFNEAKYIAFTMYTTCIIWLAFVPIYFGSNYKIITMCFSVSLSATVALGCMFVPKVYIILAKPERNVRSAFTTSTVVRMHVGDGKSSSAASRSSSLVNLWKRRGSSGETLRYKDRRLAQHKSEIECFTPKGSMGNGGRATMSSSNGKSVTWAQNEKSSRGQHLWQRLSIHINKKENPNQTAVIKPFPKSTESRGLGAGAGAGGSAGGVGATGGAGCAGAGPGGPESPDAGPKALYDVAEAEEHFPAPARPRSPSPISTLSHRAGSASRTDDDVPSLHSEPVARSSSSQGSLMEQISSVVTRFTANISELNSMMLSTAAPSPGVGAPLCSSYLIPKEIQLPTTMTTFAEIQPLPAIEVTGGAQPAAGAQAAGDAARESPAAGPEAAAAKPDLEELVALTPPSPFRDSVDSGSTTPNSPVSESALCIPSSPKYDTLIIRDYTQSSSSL
UniProt P41594, 21-1180 isoform P41594-2 limits assumed: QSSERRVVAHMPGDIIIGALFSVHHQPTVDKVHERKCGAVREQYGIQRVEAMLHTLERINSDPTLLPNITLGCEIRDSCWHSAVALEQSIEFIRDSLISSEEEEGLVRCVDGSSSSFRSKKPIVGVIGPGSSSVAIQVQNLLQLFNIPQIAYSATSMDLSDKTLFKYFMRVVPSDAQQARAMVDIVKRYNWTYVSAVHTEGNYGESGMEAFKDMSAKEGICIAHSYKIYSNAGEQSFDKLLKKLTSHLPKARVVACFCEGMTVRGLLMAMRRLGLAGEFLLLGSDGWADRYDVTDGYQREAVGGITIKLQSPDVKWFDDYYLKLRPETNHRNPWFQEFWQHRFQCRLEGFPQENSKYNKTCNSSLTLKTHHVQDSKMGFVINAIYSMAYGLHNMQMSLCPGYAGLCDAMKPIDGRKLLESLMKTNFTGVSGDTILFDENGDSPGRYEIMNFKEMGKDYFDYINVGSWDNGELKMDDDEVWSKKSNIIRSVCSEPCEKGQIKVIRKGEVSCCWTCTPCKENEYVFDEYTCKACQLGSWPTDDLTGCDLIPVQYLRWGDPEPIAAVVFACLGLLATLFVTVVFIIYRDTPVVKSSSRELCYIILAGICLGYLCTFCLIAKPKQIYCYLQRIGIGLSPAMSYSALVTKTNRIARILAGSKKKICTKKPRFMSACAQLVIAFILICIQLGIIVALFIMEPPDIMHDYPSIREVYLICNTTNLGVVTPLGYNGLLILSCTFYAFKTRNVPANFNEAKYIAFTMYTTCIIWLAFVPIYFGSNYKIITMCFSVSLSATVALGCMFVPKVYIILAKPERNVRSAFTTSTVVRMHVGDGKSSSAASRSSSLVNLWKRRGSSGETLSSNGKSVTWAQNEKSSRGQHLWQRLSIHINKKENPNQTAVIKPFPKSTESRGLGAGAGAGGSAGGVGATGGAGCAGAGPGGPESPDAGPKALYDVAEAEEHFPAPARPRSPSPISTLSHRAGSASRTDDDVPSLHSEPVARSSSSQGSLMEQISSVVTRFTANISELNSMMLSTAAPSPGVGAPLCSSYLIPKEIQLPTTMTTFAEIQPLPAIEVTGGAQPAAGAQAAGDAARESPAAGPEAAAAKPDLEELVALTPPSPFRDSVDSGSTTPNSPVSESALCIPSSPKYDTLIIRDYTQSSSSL

Columns and labels:
mGluR5 = mGluR5 (Homo sapiens, UniProt P41594); experiment: traditional membrane binding assay; conditions: comparison value for the intact cell assays
[1] = target: T1, human metabotropic subtype 5 (mGluR5a) (Homo sapiens, UniProt P41594); experiment: MAGEC-based intact cell-binding assay (HEK293 cells MAGEC transfected with mGluR5a cDNA); conditions: displacement of 30 nM 3H-labeled compound L; 96-well plates coated with fibronectin or collagen I, 384-well plate coated with collagen I; no curves on PDL-coated plates
T1 construct: expressed in transfected cells; host or cells: HEK293

For `Cc1cccc(C#Cc2ccccc2)n1.Cl` [MPEP, 2-Methyl-6-(phenylethynyl)pyridine hydrochloride], the IC50 (mGluR5) was 30 µM and the “IC50 values from intact cell binding assays compared with membrane binding assay” value [1] was “very similar”.
